# Source: ChEMBL document CHEMBL3393060, “Inhibitors of c-Jun N-terminal kinases: an update” (J Med Chem, 2015)
# Chains of the proteins cited; added tags and fusions are not shown. Lines headed by an entry give the natural chain unless they say otherwise; changes in a name come on top.
# UniProt P45983: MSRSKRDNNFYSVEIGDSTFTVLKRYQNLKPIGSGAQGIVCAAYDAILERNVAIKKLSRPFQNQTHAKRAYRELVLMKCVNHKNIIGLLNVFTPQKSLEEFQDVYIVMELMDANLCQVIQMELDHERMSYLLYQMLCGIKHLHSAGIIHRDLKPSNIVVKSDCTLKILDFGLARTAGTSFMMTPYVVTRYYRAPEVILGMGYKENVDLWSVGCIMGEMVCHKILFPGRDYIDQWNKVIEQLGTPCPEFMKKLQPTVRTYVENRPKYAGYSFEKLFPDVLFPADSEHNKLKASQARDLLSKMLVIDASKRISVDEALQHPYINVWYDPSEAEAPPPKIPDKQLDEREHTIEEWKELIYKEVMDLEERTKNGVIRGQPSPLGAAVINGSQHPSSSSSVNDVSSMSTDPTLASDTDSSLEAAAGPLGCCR
# UniProt P45984: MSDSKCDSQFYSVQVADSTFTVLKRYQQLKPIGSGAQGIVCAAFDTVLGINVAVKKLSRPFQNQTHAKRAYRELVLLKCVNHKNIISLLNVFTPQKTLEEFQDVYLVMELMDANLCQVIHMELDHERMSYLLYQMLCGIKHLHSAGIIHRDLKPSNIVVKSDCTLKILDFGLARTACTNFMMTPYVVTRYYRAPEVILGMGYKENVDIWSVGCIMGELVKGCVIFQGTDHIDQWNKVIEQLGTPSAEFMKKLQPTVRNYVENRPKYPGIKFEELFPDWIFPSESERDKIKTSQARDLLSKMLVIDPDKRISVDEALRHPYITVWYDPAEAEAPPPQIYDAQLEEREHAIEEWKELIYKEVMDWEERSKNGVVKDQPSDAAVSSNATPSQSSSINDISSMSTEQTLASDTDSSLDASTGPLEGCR
# UniProt P53779: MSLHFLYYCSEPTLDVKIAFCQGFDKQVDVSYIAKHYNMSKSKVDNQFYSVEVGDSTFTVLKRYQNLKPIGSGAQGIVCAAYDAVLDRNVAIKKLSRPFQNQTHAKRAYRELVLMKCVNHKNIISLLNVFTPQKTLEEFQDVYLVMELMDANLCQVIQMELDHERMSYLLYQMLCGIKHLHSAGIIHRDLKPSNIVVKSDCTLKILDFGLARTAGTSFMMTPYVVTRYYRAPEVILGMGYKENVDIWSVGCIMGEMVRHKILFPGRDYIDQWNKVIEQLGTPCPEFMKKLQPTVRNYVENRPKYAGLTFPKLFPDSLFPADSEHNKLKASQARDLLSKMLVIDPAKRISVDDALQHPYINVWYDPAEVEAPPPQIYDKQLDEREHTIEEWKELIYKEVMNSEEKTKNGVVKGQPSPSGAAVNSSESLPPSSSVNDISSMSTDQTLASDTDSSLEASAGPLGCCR
# Tests used:
# [1] = target: Mitogen-activated protein kinase 8 (Homo sapiens, UniProt P45983); assay: Inhibition of JNK1 (unknown origin)
# [2] = target: Mitogen-activated protein kinase 9 (Homo sapiens, UniProt P45984); assay: Inhibition of JNK2 (unknown origin)
# [3] = target: T1, Mitogen-activated protein kinase 10 (Homo sapiens, UniProt P53779); assay: Inhibition of JNK3 (unknown origin) after 1 hr incubation
# [4] = target: T1, Mitogen-activated protein kinase 10; assay: Inhibition of JNK3-mediated c-jun phosphorylation in human HeLa cells after 1 hr incubation; type: cell-based
# [5] = target: T1, Mitogen-activated protein kinase 10; assay: Inhibition of JNK3-mediated c-jun phosphorylation in human A375 cells after 1 hr incubation; type: cell-based, A-375
Kd [1] [nM],Kd [2] [nM],IC50 [3] [nM],IC50 [4] [nM],IC50 [5] [nM],Compound
240,360,,,,O/N=C1/c2ccccc2-c2nc3ccccc3nc21
,,1,486,338,Cc1cc(NC(=O)c2cccc(NC(=O)/C=C/CN(C)C)c2)ccc1Nc1nccc(-c2cccnc2)n1
